Measured values: US20040254162A1, “Oxazolidinone derivatives as antimicrobials” (priority 2001, published 2004)

Tested on: Clostridium camis
Assay: Agar dilution MIC, anaerobes
Assay type: cell-based
Conditions: single isolates, anaerobic agar dilution

CC1(C)S[C@@H]2[C@H](NC(=O)[C@H](N)c3ccc(O)cc3)C(=O)N2[C@H]1C(=O)O [Amox]
MIC Clostridium camis: <=.125 μg/ml
